Measured values from patent publication US20160096866A1 (University of Pennsylvania, published 2016).
Blank lines part the entries; values can stand above or below the substance they belong to.

Protein sequences, listed by entry. Tags and fused reporters are not part of them. Residues count along the entry.
UniProt P01024, 23-1663 limits assumed: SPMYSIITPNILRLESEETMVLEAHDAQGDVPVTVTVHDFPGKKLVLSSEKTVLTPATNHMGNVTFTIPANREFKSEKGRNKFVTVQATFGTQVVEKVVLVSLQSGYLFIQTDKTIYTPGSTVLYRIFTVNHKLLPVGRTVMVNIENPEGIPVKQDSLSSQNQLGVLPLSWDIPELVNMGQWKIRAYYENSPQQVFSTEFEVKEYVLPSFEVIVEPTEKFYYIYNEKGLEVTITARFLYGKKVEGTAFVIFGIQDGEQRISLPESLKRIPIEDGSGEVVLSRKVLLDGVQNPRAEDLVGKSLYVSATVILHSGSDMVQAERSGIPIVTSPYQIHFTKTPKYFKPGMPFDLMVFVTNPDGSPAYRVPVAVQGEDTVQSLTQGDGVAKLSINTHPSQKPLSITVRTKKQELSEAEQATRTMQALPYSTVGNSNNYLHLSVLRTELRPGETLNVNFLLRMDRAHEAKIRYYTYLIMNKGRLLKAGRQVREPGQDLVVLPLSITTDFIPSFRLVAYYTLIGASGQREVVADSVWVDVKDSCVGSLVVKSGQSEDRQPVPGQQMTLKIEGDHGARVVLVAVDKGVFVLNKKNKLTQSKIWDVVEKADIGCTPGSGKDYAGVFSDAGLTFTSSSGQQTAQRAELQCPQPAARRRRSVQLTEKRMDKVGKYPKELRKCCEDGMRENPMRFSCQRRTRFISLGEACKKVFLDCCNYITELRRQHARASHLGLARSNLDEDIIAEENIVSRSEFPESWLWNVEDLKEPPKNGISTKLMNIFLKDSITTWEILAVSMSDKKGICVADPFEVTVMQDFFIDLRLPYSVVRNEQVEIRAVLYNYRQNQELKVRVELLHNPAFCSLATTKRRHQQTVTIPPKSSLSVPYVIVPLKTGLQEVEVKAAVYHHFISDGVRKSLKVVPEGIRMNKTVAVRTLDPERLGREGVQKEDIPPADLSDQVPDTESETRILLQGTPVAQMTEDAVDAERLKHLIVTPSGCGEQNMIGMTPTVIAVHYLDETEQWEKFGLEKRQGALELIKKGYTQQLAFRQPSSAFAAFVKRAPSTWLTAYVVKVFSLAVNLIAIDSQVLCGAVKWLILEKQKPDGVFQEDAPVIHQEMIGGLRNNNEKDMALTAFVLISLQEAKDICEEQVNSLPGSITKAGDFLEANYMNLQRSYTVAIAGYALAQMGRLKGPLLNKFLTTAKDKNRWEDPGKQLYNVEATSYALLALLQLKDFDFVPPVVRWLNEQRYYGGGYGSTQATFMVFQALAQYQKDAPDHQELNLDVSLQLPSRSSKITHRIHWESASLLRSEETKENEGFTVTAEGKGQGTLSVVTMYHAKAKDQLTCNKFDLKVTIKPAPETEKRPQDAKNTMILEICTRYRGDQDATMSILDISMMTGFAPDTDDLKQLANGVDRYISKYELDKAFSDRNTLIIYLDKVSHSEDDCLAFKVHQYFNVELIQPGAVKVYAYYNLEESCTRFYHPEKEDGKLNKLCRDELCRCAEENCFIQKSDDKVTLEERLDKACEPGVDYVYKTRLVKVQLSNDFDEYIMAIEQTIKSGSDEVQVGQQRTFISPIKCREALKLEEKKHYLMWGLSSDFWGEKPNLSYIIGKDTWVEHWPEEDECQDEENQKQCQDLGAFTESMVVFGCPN

How the values were obtained:
[1] = molecular target: complement component C3 (human) (UniProt P01024); experiment: ITC, peptide titrated into C3, PBS pH 7.4, 25 C
[2] = molecular target: complement component C3 (human) (UniProt P01024); experiment: ITC, peptide titrated into C3
[3] = molecular target: complement component C3 (human) (UniProt P01024); experiment: ITC; relative to Ac-V4W/H9A
[4] = molecular target: complement component C3 (human) (UniProt P01024); experiment: ITC; this row is the reference

Substance: Ac-V4(1-methyl-W)/H9A (peptide)
-TΔS [1]: 6.94 kcal/mol

Substance: Ac-V4(1-methyl-W)/W7(5f-l-W)/H9A (peptide)
-TΔS [1]: 6.73 kcal/mol

Substance: Ac-V4(5-methyl-W)/H9A (peptide)
-TΔS [1]: 8.2 kcal/mol | Kd [1]: 120 nM

Substance: Ac-V4(5f-l-W)/W7(5f-l-W)/H9A (peptide)
free energy change [2]: -10.5 kcal/mol | -TΔS [1]: 6.73 kcal/mol | -TΔΔS [3]: -2.06 kcal/mol | ΔΔG [3]: -1.2 kcal/mol | ΔΔH [3]: 0.81 kcal/mol

Substance: Ac-V4W/H9A (peptide)
-TΔΔS [4]: 0 kcal/mol | ΔΔG [4]: 0 kcal/mol | ΔΔH [4]: 0 kcal/mol

The remaining lines, values ahead:

-TΔS [1]: 7.39 kcal/mol | ΔG [1]: -9.4 kcal/mol
Substance: Ac-V4(5f-l-W)/H9A (peptide)

-TΔS [1]: 11.6 kcal/mol | ΔΔG [3]: -1 kcal/mol
Substance: Ac-V4W/W7(5f-l-W)/H9A (peptide)
